According to patent publication US7527916B2, “Photopolymerizable composition” (Agfa Graphics, N.V., priority 2003, dated 2009):

Assay: Solubility test in methyl ethyl ketone
Format: physicochemical
Details: 1.5 g sensitiser in 100 g methyl ethyl ketone, stirred at room temperature (20° C.) for a maximum of 24 hours
Description: Solubility Test in Methyl Ethyl Ketone
1.5 g of the sensitiser is dissolved in 100g of methyl ethyl ketone and allowed to stir at room temperature (20° C.) for a maximum of 24 hours. If the sensitiser is completely dissolved in the methyl ethyl ketone, the sensitiser passes the solubility test and is considered as a preferred sensitiser according to the present invention.

In the case of “1,4-distyryl-(3,5-trimethoxy, 4-(2-pentyl)oxy)benzene [(E)]”, the “Solubility test MEK (15 g/kg)” value is reported as “OK (If the sensitiser is completely dissolved in the methyl ethyl ketone, the sensitiser passes the solubility test)”.
